Data: PubChem BioAssay AID793 (The Scripps Research Institute Molecular Screening Center, 2007)
The entries are a selection whose mix differs from that of the whole data set. The source made the active and inactive calls. Cut-off read from the data, not from the text of the source: active = inhibition above about 17%; inactive = the rest.

The chains behind the UniProt entries cited, without tags or fusion partners.
UniProt P49146, whole entry: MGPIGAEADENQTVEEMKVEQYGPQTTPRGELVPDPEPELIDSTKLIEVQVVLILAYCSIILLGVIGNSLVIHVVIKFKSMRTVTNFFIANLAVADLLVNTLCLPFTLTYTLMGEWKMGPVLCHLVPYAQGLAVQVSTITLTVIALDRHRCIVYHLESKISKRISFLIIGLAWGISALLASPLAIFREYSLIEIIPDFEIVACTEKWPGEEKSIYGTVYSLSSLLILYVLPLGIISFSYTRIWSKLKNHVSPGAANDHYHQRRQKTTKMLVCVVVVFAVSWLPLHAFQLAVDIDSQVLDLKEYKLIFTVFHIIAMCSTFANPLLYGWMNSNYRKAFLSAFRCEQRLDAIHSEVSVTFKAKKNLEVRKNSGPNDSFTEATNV

Each compound was assayed against Neuropeptide Y receptor type 2 (Homo sapiens) (UniProt P49146) (assay: NPY-Y2 receptor antagonists, primary screen, cell-based (AID 793;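 note: 0% = vehicle with agonist challenge and 100% = reference antagonist with challenge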)). Conditions: NPY-Y2 expressing cells, antagonist mode; at 2.7 µM; active compounds read high.

Row | SMILES | inhibition
1 | CC(C)(C)c1ccc(OP(C)(=O)Nc2ccc(SC(F)(F)F)cc2)cc1 (stereo not given) | inactive: -2.53%
2 | CCOC(=O)c1ccc(NP(C)(=O)Oc2ccccc2)cc1 (stereo not given) | inactive: 1.41%
3 | COc1ccccc1OP(C)(=O)Nc1ccc(C)cc1 (stereo not given) | inactive: 1.54%
4 | Cc1ccc(NP(C)(=O)Oc2ccccc2)c(C)c1 (stereo not given) | inactive: 2.5%
5 | COc1ccc(OP(C)(=O)Nc2cccc(F)c2)cc1 (stereo not given) | inactive: 0.32%
6 | Cc1cccc(C)c1OP(C)(=O)Nc1ccc(SC(F)(F)F)cc1 (stereo not given) | inactive: -1%
7 | CP(=O)(NC(=O)Nc1ccccc1)Oc1ccccc1 (stereo not given) | inactive: 0.74%
8 | Cc1cc(C)cc(OP(C)(=O)Nc2ccc(SC(F)(F)F)cc2)c1 (stereo not given) | inactive: 1.42%
9 | CCOP(C)(=S)SCC(=O)NC(C)C(=O)O (stereo not given) | inactive: 1.31%
10 | CCOC(=O)c1ccc(NP(C)(=O)Oc2ccc(OC)cc2)cc1 (stereo not given) | inactive: 2.81%
11 | CP(=O)(Nc1ccccn1)Oc1ccc(Cl)cc1 (stereo not given) | inactive: 0.46%
12 | CP(=S)(Nn1cnnc1)Oc1ccccc1 (stereo not given) | inactive: 4.01%
13 | CP(=O)(Nc1ccccc1Br)Oc1ccccc1 (stereo not given) | inactive: 3.25%
14 | CN1CCCCC1COC(=O)C1(O)c2ccccc2CCc2ccccc21 (stereo not given) | inactive: 7.28%
15 | COc1ccccc1OP(C)(=O)Nc1c(C)cccc1C (stereo not given) | inactive: -2.19%
16 | CP(=O)(Nc1ccc(SC(F)(F)F)cc1)Oc1ccccc1 (stereo not given) | inactive: -2.63%
17 | Cc1nc2ccc3ccccc3c2s1.O=[N+]([O-])c1cc([N+](=O)[O-])c(O)c([N+](=O)[O-])c1 | inactive: 5.94%
18 | Cc1cc(C)cc(OP(C)(=O)Nc2ccc(C)cc2C)c1 (stereo not given) | inactive: 2.7%
19 | CCOC(=O)c1ccc(NP(C)(=O)Oc2cc(C)cc(C)c2)cc1 (stereo not given) | inactive: -0.79%
20 | Cc1cc(C)cc(OP(C)(=O)Nc2ccccn2)c1 (stereo not given) | inactive: 0.04%
21 | Cc1ccc(C)c(NP(C)(=O)Oc2ccccc2)c1 (stereo not given) | inactive: 1.61%
22 | CC1=NCCc2c1[nH]c1ccccc21.O=[N+]([O-])c1cc([N+](=O)[O-])c(O)c([N+](=O)[O-])c1 | inactive: 6.18%
23 | CCOC(=O)c1ccc(NP(C)(=O)Oc2ccc(F)cc2)cc1 (stereo not given) | inactive: 1.34%
24 | CCN(CC)CCCOC(=O)C(O)(c1ccccc1)C1CCCCC1 (stereo not given) | inactive: 6.85%
25 | CP(=O)(Nc1ccccc1)Oc1ccc(F)cc1 (stereo not given) | inactive: 0.46%

Row | SMILES | inhibition
26 | CC(C)c1ccc(OP(C)(=O)Nc2ccc(SC(F)(F)F)cc2)cc1 (stereo not given) | inactive: -0.33%
27 | CP(=O)(Nc1ccccc1F)Oc1ccccc1 (stereo not given) | inactive: 0.73%
28 | O=C(OCCN1CCN(CCOCc2ccccc2)CC1)C(O)(c1ccccc1)c1ccccc1 | inactive: 3.48%
29 | CCOP(C)(=S)SCC(=O)NC(C)(CC)C(=O)O (stereo not given) | inactive: -0.54%
30 | CP(=O)(Nc1ccc2c(c1)OCCO2)Oc1ccccc1 (stereo not given) | inactive: 1.25%
31 | Cc1ccccc1NP(C)(=O)Nc1ccccc1C | inactive: 2.02%
32 | COc1ccc(OP(C)(=O)Nc2cccc(Br)c2)cc1 (stereo not given) | inactive: 0.53%
33 | CN(C)CCOC(=O)C(O)(c1ccccc1)C1CCCCC1 (stereo not given) | inactive: -0.69%
34 | CP(=O)(OC12CC3CC(CC(C3)C1)C2)OC12CC3CC(CC(C3)C1)C2 | inactive: 1.59%
35 | CCOC(=O)c1ccc(NP(C)(=O)Oc2ccc(Cl)cc2)cc1 (stereo not given) | inactive: 0.87%
36 | CCN(CC)CC(O)COC(=O)C(O)(c1ccccc1)C1CCCCC1 (stereo not given) | inactive: 5.71%
37 | COc1ccc(OP(C)(=O)Nc2ccc(Br)cc2)cc1 (stereo not given) | inactive: -0.81%
38 | CP(=O)(Oc1ccccc1)N1CCOC1=O (stereo not given) | inactive: 2.05%
39 | COc1ccccc1OP(C)(=O)Nc1c(C)n(C)n(-c2ccccc2)c1=O (stereo not given) | inactive: 2.87%
40 | CP(=O)(Nc1ccc(Cl)cc1)Oc1ccc(F)cc1 (stereo not given) | inactive: -1.39%
41 | CC(C)(C)c1ccc(OP(C)(=O)O)cc1 | inactive: 2.22%
42 | CN(C)CCOC(=O)C(O)(c1ccccc1)C1CCCC1 (stereo not given) | inactive: -2%
43 | COc1ccc(OP(C)(=O)Nc2ccccn2)cc1 (stereo not given) | inactive: 3.2%
44 | Cc1c(NP(C)(=O)Oc2ccc(C(C)C)cc2)c(=O)n(-c2ccccc2)n1C (stereo not given) | inactive: 0.62%
45 | CCc1ccc(OP(C)(=O)O)cc1 | inactive: -0.32%
46 | CP(=O)(Nc1ccccn1)Oc1ccccc1 (stereo not given) | inactive: 2.79%
47 | COc1ccccc1OP(C)(=O)Nc1ccc(C)cc1C (stereo not given) | inactive: 2.05%
48 | COc1ccc(OP(C)(=O)Nc2ccccc2Br)cc1 (stereo not given) | inactive: 1.38%
49 | COc1ccccc1OP(C)(=O)Nc1ccc(C)c(C)c1 (stereo not given) | inactive: -0.46%
50 | Cc1nc2ccc3ccccc3c2o1.O=[N+]([O-])c1cc([N+](=O)[O-])c(O)c([N+](=O)[O-])c1 | inactive: 6.67%
